Measurements taken from patent publication US6608061B2, “Bisaryl compound and medicament for cancer treatment comprising the same” (Kyoma Hakko Kogyo Co., Ltd., priority 1997, dated 2003).

The chains behind the UniProt entries cited, without tags or fusion partners.
UniProt P23921, whole entry: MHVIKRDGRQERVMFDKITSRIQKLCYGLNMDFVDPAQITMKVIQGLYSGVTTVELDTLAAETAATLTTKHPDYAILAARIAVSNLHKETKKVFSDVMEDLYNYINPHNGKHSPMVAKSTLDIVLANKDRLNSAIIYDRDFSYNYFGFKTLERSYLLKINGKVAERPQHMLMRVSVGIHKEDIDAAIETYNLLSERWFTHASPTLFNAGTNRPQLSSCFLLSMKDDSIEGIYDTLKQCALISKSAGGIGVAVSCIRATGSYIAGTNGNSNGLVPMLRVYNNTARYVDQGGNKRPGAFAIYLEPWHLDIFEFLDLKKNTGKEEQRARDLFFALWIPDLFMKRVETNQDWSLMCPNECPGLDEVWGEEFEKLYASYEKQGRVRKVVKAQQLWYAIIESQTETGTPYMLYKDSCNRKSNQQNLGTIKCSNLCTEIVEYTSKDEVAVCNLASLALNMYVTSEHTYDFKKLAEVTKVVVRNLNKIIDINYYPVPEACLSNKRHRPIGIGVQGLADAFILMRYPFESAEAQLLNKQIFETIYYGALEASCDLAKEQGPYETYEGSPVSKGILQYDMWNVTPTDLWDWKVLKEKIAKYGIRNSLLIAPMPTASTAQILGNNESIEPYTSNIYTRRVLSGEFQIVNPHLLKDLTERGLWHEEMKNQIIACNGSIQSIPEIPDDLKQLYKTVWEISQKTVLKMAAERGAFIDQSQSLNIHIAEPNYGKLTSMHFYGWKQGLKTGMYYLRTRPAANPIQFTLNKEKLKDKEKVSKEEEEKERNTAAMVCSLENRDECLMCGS
UniProt P31350, whole entry: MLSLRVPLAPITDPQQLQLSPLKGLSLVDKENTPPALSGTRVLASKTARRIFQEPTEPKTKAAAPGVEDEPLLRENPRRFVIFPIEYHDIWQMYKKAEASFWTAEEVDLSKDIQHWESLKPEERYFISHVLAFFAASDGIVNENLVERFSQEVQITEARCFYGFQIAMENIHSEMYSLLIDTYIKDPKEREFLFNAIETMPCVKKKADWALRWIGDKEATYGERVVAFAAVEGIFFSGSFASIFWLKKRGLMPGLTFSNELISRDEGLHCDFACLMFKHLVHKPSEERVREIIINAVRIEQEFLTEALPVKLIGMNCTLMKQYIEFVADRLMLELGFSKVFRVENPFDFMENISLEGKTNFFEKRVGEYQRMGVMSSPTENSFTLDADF

Tests used:
[1] = biological target: human RNR (purified R1 and R2 subunits) (Homo sapiens, UniProt P23921+P31350); experiment: In vitro measurement of human RNR inhibitory activity (conversion of CDP to dCDP, HPLC); conditions: read-out: RNR Inhibition (IC50), 100 μM CDP, 37° C., 30 minutes
Experimental: Test of Measurement of RNR Inhibitory Activity
(a) Preparation of R1 and R2 subunits of human RNR
(b) In vitro Measurement of Human RNR Inhibitory Activity
By using the above-obtained human RNR subunits, inhibitory activity on the human RNR was tested in vitro. The composition of the reaction mixture is as follows:
50 mM HEPES-NaOH (pH 7.6)
40 ng/ml Purified human RNR R1 subunit, and
40 ng/ml Purified human RNR R2 subunit.
The above reaction mixture (25 μl) containing a test compound at an appropriate final concentration was prepared, and the conversion from CDP to dCDP by RNR was carried out at 37° C. for 30 minutes. The reaction mixture was subjected to a heat treatment at 95° C. for 5 minutes, and centrifuged at 10,000× g for 5 minutes at 4° C. 20 μl of the supernatant was collected and 5 μl of 25 mg/ml snake venom (Sigma) was added thereto. Dephosphorylation reaction was carried out at 37° C. for 60 minutes to allow complete conversion of CDP, ATP and dCDP as the reaction product present in the reaction mixture into CR, AR and CdR, respectively. The reaction mixture was subjected to a heat treatment at 95° C. for 5 minutes, and centrifuged at 10,000× g for 5 minutes at 4° C. 180 μl of acetonitrile was added to 20 μl of the supernatant, and the mixture was centrifuged again at 10,000× g for 5 minutes at 4° C., and the resulting supernatant was used as a sample for analysis. The analysis was performed by high performance liquid chromatography. Analytical conditions are as follows:
Column: Licrospher NH2 (Merck)
Eluent: acetonitrile/water (90:10, V/V).
CdR in the analyzed sample was identified and its concentration was determined by comparison with elution time and peak area with those of CdR at known concentration. A concentration of a test compound which inhibited the RNR activity by 50% under the aforementioned conditions was calculated by comparing a CdR concentration in a sample, obtained from the reaction without drug treatment, with a CdR concentration in a sample obtained from the reaction wherein the test compound at a known concentration was added, and the value obtained was determined as IC50.

[2] = test system: HeLa S3 cells; experiment: Test for growth inhibition of HeLa S3 cells; conditions: read-out: Cell growth inhibition (IC50), 72 hours with test compound, Cell Proliferation Kit II
Experimental: Test for Growth Inhibition of Hela S3 Cells
HeLa S3 cells prepared at 1×10^4 cells/ml in MEM culture medium containing 10% fetal bovine serum and 2 mM glutamine were added to each well of a 96-well microtiter plate (0.1 ml for each well). The cells were cultured at 37° C. in a CO2 incubator for 24 hours, and then 0.05 ml of test compound appropriately diluted with the above medium was added to each well, and then the mixture was cultured at 37° C. in a CO2 incubator for 72 hours. After the culture supernatant was removed, each well was washed with 0.1 ml of PBS buffer twice, and 0.1 ml of the aforementioned medium was added to each well again.
Cell Proliferation Kit II (Boehringer Mennheim) was used for measurement of cell number in each well. After a coloring reaction reagent was added, the plate was warmed to 37° C. in a CO2 incubator for 3 hours. Then, absorbances at 490 nm and 655 nm were measured by a microplate reader, and a value (difference of absorbance) was calculated for each well by subtracting the absorbance at […] from the absorbance at 490 nm. By comparing the differences of absorbance for cells without treatment and cells treated with a test compound at a known concentration, a concentration of test compound which inhibited the cell growth by 50% was calculated, and the value obtained was determined as IC50. The values of RNR inhibitory activity obtained in Example 8, and the values of cell growth inhibitory activity obtained in Example 9 are shown in the following tables (the compound numbers used in the tables correspond to the compound numbers shown in the aforementioned tables).

SMILES | IC50 [1] [µM] | IC50 [2] [µM]
O=C(CSc1ccc(O)cc1)NCCCSc1ccc(O)cc1 | 3.77 | 13.4
O=C(CSc1ccc(O)cc1)OCCCOC(=O)CSc1ccc(O)cc1 | 3.98 | 50.1
Oc1ccc(SCCN(CCF)CCSc2ccc(O)cc2)cc1 | 2.74 | 12
Oc1ccc(SCCN(CCSc2ccc(O)cc2)CC(F)(F)F)cc1 | 0.61 | 2.5

More lines, in order of falling IC50 [1], values ahead:

IC50 [1] [µM] | IC50 [2] [µM] | SMILES
3.97 | 3.81 | CCCC(=O)N(CCSc1ccc(O)cc1)CCSc1ccc(O)cc1
2.75 | 7.67 | O=C(CSc1ccc(O)cc1)NCCSc1ccc(O)cc1
